Antibody variant affinities, Ab-14 light chain, assay B

Target: peptide PDVDLGDISGINAS, taken from heptad repeat 2 (HR2) of SARS-CoV-2 spike.

Parent: Ab-14, a human scFv built as VH, a (GGGGS)3 linker, VL. Only the CDRs of the light chain vary.
VH: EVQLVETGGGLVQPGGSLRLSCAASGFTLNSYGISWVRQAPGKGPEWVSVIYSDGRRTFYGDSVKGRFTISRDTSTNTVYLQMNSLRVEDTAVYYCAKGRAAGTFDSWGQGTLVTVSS
VL: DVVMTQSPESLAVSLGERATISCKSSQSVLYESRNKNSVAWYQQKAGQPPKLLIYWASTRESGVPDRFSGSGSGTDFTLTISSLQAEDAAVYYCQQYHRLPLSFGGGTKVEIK

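Phage display of a naive human antibody library on the peptide gave the parent. Designed CDR sequences, proposed from the first random library and measured here. Their group label is 14L_Ctrl (Ctrl: baseline library sampled from a position-specific scoring matrix, with some repeated check sequences). Affinity was read by AlphaSeq, a pooled yeast mating assay with surface-displayed partners. Binding brings cells together so that they mate, and sequencing counts the barcode pairs among the diploids. Scores were corrected for input abundance and mapped to Kd with protein pairs of known affinity run in the same pool. Mating was done six times.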

Changes read parent residue, position, new residue, counted from the first residue of the VL shown.
Scale: log10 of Kd in nM, estimated from mating counts; low values are strong binders.
Replicates are averaged; those with no signal do not enter the mean.
"ND" marks a missing value. The strain was present, yet no cells mated with the target were sequenced in that replicate, which points to weak or no binding.
Nonspecific signal, from three strains lacking the peptide, appeared in 4% of pairings of all light chain designs, centred on 2.64 (5% of these signals below 1.59); values are not corrected for it. For each scFv, signals with the empty controls are counted beside the result, with their mean in brackets.

changes	log10 Kd (nM) by replicate	log10 Kd (nM), mean	signal with controls
V29D L30P K36F V39P	ND ND ND ND ND ND	ND	0/18
K24R V29C L30W Y31F R34Y S58K Q95Y H98P	ND ND ND ND ND ND	ND	0/18
S25M Q27T V29I T59Q H98F	ND ND ND ND ND ND	ND	0/18
L30P T59L S62R P101S	ND 1.74 ND ND ND ND	1.74	0/18
Y31N R34T W56A E61V	1.04 1.02 1.57 0.54 0.82 1.19	1.03	0/18
E32D W56G	ND ND ND ND ND ND	ND	0/18
V29D S62E	1.55 1.52 1.58 0.94 1.45 2.02	1.51	0/18
K36T W56K	2.16 1.97 1.97 2.35 2.23 2.79	2.25	0/18
L30Q S62E	ND ND ND ND ND ND	ND	0/18
L30A R34M K36I T59M	ND 2.24 ND ND 3.04 ND	2.64	0/18
S26M E61N	1.71 3.48 ND ND ND ND	2.60	0/18
L30E Y31T H98L P101L	0.29 1.15 ND 0.70 1.30 1.60	1.01	0/18
S26L L30N E32S	2.29 2.74 2.61 ND ND 2.80	2.61	0/18
V29E W56G H98V	0.45 0.09 -0.07 0.23 0.47 0.58	0.29	2/18 (2.05)
S26H V29F E32N S58T	ND ND ND ND ND ND	ND	0/18
W56S Q96R	ND ND ND ND ND ND	ND	0/18
S28N A57L S62V	ND 1.84 ND ND ND ND	1.84	1/18 (1.12)
W56Y H98M	ND ND ND ND ND ND	ND	0/18
S33G K36S S62I	1.78 2.12 2.48 2.44 2.09 1.70	2.10	0/18
V29L W56E	0.29 0.55 0.78 0.07 0.11 0.45	0.37	0/18
Q27W V29W	-0.44 0.38 0.05 0.06 -0.20 0.03	-0.02	2/18 (1.37)
S26D W56R	1.69 0.62 0.79 1.20 0.99 0.90	1.03	0/18
S25M E61D	1.90 0.83 1.02 0.68 1.21 1.62	1.21	0/18
N35W K36H N37G V39I W56G R60L E61V	1.90 1.29 1.64 1.74 1.35 1.17	1.51	1/18 (2.32)
W56F	1.69 ND ND 2.51 2.64 2.30	2.28	0/18
Y31N N35V W56N R99C	2.38 ND 2.39 2.73 ND 2.40	2.48	2/18 (2.23)
Q27P V29D Y31G N37Q H98I P101T	ND ND ND ND ND ND	ND	0/18
Q27S H98N	2.19 1.76 1.69 1.54 1.87 1.15	1.70	0/18
S26I W56E	0.92 1.62 1.11 0.92 1.27 0.80	1.10	2/18 (2.75)
S25M W56A H98A R99G	0.25 0.21 0.22 -0.01 0.09 0.29	0.17	1/18 (2.33)
Q27M S33E S62E H98Y	2.10 0.95 1.28 1.16 1.00 1.99	1.41	2/18 (1.92)
W56N L100I	2.12 1.79 1.56 1.79 1.51 1.61	1.73	2/18 (3.26)
E32N N35H P101L	ND ND ND ND ND ND	ND	0/18
V29Q L30G S33H S38N L102C	ND ND ND ND ND ND	ND	0/18
S25T W56E	0.85 0.54 0.78 0.72 1.75 1.22	0.98	0/18
S28H R34S R99H	1.51 1.32 3.68 2.16 1.88 1.88	2.07	1/18 (3.22)
Y31E K36M Q96T L102F	ND ND ND 3.06 2.58 3.13	2.92	2/18 (2.90)
S25M S38D W56A	0.20 0.31 -0.05 0.26 0.27 0.15	0.19	3/18 (3.00)
V29R S38D	ND ND 3.81 ND ND ND	3.81	1/18 (2.05)

Picked from the list: the 6 lowest averages where every replicate gave a value.

changes	log10 Kd (nM) by replicate	log10 Kd (nM), mean	signal with controls
Q27W V29W	-0.44 0.38 0.05 0.06 -0.20 0.03	-0.02	2/18 (1.37)
S25M W56A H98A R99G	0.25 0.21 0.22 -0.01 0.09 0.29	0.17	1/18 (2.33)
S25M S38D W56A	0.20 0.31 -0.05 0.26 0.27 0.15	0.19	3/18 (3.00)
V29E W56G H98V	0.45 0.09 -0.07 0.23 0.47 0.58	0.29	2/18 (2.05)
V29L W56E	0.29 0.55 0.78 0.07 0.11 0.45	0.37	0/18
S25T W56E	0.85 0.54 0.78 0.72 1.75 1.22	0.98	0/18

The authors' rule: three or more of the six replicates give a measured affinity, fewer mean a poor binder.
Values of this round are not directly comparable with the first-round values of the same sequences.

Reference: Li et al. 2023, doi:10.1038/s41467-023-39022-2. File: FLAb, binding data.